Source: article PMC6099617, “Synthesis of Antibacterial Nisin–Peptoid Hybrids Using Click Methodology” (Molecules : A Journal of Synthetic Chemistry and Natural …, 2018)
Several values for one entry are separate records, joined by “and”; a condition that tells them apart may be missing. Equal entries are not always repeated.

What was measured:
HaCaT keratinocytes = assay: Cytotoxicity assay (alamarBlue cell viability), HaCaT; type: cell-based; settings: 1 hour with compound 2–100 µM, then 24 hours
Description: (§1) Cytotoxicity analyses were performed in 96-well plates (Costar, Fisher Scientific) using alamarBlue® (Invitrogen) for cell viability detection using a modified protocol as previously described.9 The HepG2 or HaCaT cells were grown at 37 °C, 5 % CO2 in DMEM10 high glucose supplemented with heat-inactivated foetal bovine sera (FBS, 10 %; Biosera Ltd) and penicillin/streptomycin (P/S, 1 %). Cells were counted using a Neubauer Improved Haemocytometer. Cells were seeded 1 day prior to treatment in 96 well plates at a concentration of 2 x 10^5 cells mL-1 in 100 µL of medium (2 x 10^4 cells/well). Empty wells were filled with 100 µL PBS. After 24 hours, cells were incubated with the compounds in a dilution series in triplicate from 2–100 µM (5 mM stock solutions in DMSO; untreated cells with DMSO as a negative control) in 50 µL of the media for 1 hour. Afterwards, 40 µL of medium was removed from each well before the addition of 90 µL of the media, followed by incubation for 24 hours at 37 °C, 5 % CO2. Then, 10 µL of alamarBlue® (Invitrogen) was added to each well before a 2 hour incubation prior to assessing cell viability using a fluorescent plate reader (Biotek; λex 560 nm, λem 600 nm).

epithelial HepG2 cells = assay: Cytotoxicity assay (alamarBlue cell viability), HepG2; type: cell-based; settings: 1 hour with compound 2–100 µM, then 24 hours
Description: as §1

[1] = system: methicillin-resistant Staphylococcus aureus USA 300; settings: for Reduction of antibacterial activity compared with the parent peptoid: MRSA USA300, 2a, 2b vs parent peptoids without alkyne, 6a vs 1a

SMILES: C=C1NC(=O)[C@H]([C@@H](C)CC)NC(=O)[C@H](NC(=O)/C(=C/C)NC(=O)[C@@H](N)[C@@H](C)CC)CSC[C@@H](C(=O)N[C@H]2C(=O)N3CCC[C@H]3C(=O)NCC(=O)N[C@H](C(=O)N[C@@H](CCCCN)C(=O)NCCCn3cc(CNCC(=O)N(CC(=O)N(CC(=O)N(CCCCN)CC(=O)N(CC(=O)N(CC(=O)N(CCCCN)CC(=O)N(CC(=O)N(CC(=O)N(CCCCN)CC(=O)N(CC(=O)N(CC(=O)N(CCCCN)CC(=O)N(CC(=O)N(CC(N)=O)[C@@H](C)c4ccccc4)[C@@H](C)c4ccccc4)Cc4ccc(F)cc4)Cc4ccc(F)cc4)[C@@H](C)c4ccccc4)[C@@H](C)c4ccccc4)Cc4ccc(F)cc4)Cc4ccc(F)cc4)[C@@H](C)c4ccccc4)[C@@H](C)c4ccccc4)nn3)CS[C@H]2C)NC(=O)[C@H](CC(C)C)NC1=O [6b, Nisin[1,2,3,4,5,6,7,8,9, 10, 11, 12]-NspeNspe[(NLysNpfbNpfb)(NLysNspeNspe)]2]
- ED50 HaCaT (HaCaT keratinocytes): 24 µM and 22 µM
- ED50 HepG2 (epithelial HepG2 cells): 23 µM

SMILES: C=C1NC(=O)[C@H]([C@@H](C)CC)NC(=O)[C@H](NC(=O)/C(=C/C)NC(=O)[C@@H](N)[C@@H](C)CC)CSC[C@@H](C(=O)N[C@H]2C(=O)N3CCC[C@H]3C(=O)NCC(=O)N[C@H](C(=O)N[C@@H](CCCCN)C(=O)NCCCn3cc(CNCC(=O)N(CC(=O)N(CC(=O)N(CCN)CC(=O)N(CC(=O)N(CC(=O)N(CCN)CC(=O)N(CC(=O)N(CC(=O)N(CCN)CC(=O)N(CC(=O)N(CC(=O)N(CCN)CC(=O)N(CC(=O)N(CC(N)=O)[C@@H](C)c4ccccc4)[C@@H](C)c4ccccc4)[C@@H](C)c4ccccc4)[C@@H](C)c4ccccc4)[C@@H](C)c4ccccc4)[C@@H](C)c4ccccc4)[C@@H](C)c4ccccc4)[C@@H](C)c4ccccc4)[C@@H](C)c4ccccc4)[C@@H](C)c4ccccc4)nn3)CS[C@H]2C)NC(=O)[C@H](CC(C)C)NC1=O [6a, Nisin[1,2,3,4,5,6,7,8,9, 10, 11, 12]-NspeNspe(NaeNspeNspe)4]
- ED50 HaCaT (HaCaT keratinocytes): 22 µM and 24 µM
- Reduction of antibacterial activity compared with the parent peptoid [1]: approximately five-fold less active
- ED50 HepG2 (epithelial HepG2 cells): 15 µM

SMILES: C#CCNCC(=O)N(CC(=O)N(CC(=O)N(CCCCN)CC(=O)N(CC(=O)N(CC(=O)N(CCCCN)CC(=O)N(CC(=O)N(CC(=O)N(CCCCN)CC(=O)N(CC(=O)N(CC(=O)N(CCCCN)CC(=O)N(CC(=O)N(CC(N)=O)[C@@H](C)c1ccccc1)[C@@H](C)c1ccccc1)Cc1ccc(F)cc1)Cc1ccc(F)cc1)[C@@H](C)c1ccccc1)[C@@H](C)c1ccccc1)Cc1ccc(F)cc1)Cc1ccc(F)cc1)[C@@H](C)c1ccccc1)[C@@H](C)c1ccccc1 [2b, NprpNspeNspe[(NLysNpfbNpfb)(NLysNspeNspe)]2]
- ED50 HaCaT (HaCaT keratinocytes): < 20 µM and 15 µM
- Reduction of antibacterial activity compared with the parent peptoid [1]: ~2 fold
- MIC S. aureus (USA300) ([1]; USA 300): 4 to 7 µM
- ED50 HepG2 (epithelial HepG2 cells): < 20 µM and 17 µM
